The results in this text go back to ChEMBL document CHEMBL1137342 (J Med Chem, 2006).

Amino acid sequences for entries named in this document (tags omitted).
UniProt P21728, whole entry: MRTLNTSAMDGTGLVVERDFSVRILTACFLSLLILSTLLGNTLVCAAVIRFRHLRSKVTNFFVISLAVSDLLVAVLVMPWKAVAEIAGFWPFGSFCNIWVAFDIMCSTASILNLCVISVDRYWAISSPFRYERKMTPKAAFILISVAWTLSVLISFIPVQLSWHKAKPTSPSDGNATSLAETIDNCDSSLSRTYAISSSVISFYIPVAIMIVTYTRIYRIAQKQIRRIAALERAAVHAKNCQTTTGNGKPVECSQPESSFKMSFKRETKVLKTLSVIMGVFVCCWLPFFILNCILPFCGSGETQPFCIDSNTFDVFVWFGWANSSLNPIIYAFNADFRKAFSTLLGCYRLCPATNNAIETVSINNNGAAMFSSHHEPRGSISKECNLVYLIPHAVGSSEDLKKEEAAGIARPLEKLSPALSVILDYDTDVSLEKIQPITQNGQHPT

As a reminder, the Ki is the equilibrium dissociation constant of an inhibitor or competing ligand from its target. Read a high Ki as lower affinity. As a reminder, the EC50 is the concentration giving half of the maximal effect.

The structures appear in SMILES notation.

Assay [1] concerns the target T1, D(1A) dopamine receptor (Homo sapiens, UniProt P21728). The assay can be described thus: Binding affinity to human cloned dopamine D1 receptor.
Assay [2] concerns the target T1, D(1A) dopamine receptor. The assay can be described thus: Activity at human dopamine D1 receptor expressed in HEK293 cells assessed as stimulation of cAMP production. Format: functional, cell-based. In general terms: Cyclic AMP is a second messenger, typically raised through Gs and lowered through Gi signalling.

`Oc1cc2c(cc1O)C1c3ccccc3CNC1CO2` (racemic) [DOXANTHRINE] registered a Ki at D(1A) dopamine receptor [1] of 98 nM. Further, the concentration giving a half-maximal response (EC50) on D(1A) dopamine receptor [2] is 32 nM. As to `Oc1cc2c(cc1O)[C@H]1c3ccccc3CN[C@@H]1CO2` (single isomer, unassigned), the EC50 at D(1A) dopamine receptor [2] came to 29 nM. For `Oc1cc2c(cc1O)[C@@H]1c3ccccc3CN[C@H]1CO2` (single isomer, unassigned), the EC50 on D(1A) dopamine receptor [2] was 1100 nM.
